System: HepG2 cells
Conditions: human, 18 h

## Nc1nc2nc[nH]c2c(=S)[nH]1 [6-Thioguanine]
  Cytotoxicity to HepG2 cells (CTG): cytotoxic to HepG2 cells

Reference: PMC4835244 (Stem Cells Translational Medicine, 2016)
